{"source": "PubChem BioAssay AID1446", "about": "(The Scripps Research Institute Molecular Screening Center, 2008)", "note": "Several values for one entry are separate records, joined by “and”; a condition that tells them apart may be missing. Equal entries are not always repeated. Only a part is listed here, and it is no random draw. Activity calls are given as the source filed them.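 Rule for the calls: active = inhibition above the campaign mean plus 3 SD over all tested compounds (cut at about 24% in these data); inactive = the rest.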"}
{"assay": "viability loss in Ba/F3 EpoR-JAK2V617F cells – cell-based, luminescence, JAK2V617F inhibitor project, primary screen (AID 1446);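 note: cytokine-independent growth of Ba/F3 cells driven by EpoR plus mutant JAK2; 0% = DMSO-treated cells and 100% = JAK inhibitor I control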", "conditions": "ATP luminescence, at 5.6 µM, stronger effect = higher value"}
{"smiles": "Oc1ccccc1CNc1ccccn1", "inhibition": "inactive: -0.14%"}
{"smiles": "O=C(NC(Sc1ccncn1)C(Cl)(Cl)Cl)c1ccccc1", "note": "(stereo not given)", "inhibition": "inactive: -2.09%"}
{"smiles": "Cc1c2non([O-])c-2c(C)[n+](=O)[n+]1[O-]", "inhibition": "inactive: 3.5%"}
{"smiles": "Nc1cc(N)c2nonc2c1[N+](=O)[O-]", "inhibition": "inactive: -1.03%"}
{"smiles": "CC(C)CC(=O)NC(Sc1ccc(Cl)cc1)C(Cl)(Cl)Cl", "note": "(stereo not given)", "inhibition": "inactive: -1.27%"}
{"smiles": "O=P(Nc1nc2ccc(Cl)cc2s1)(c1ccccc1)c1ccccc1", "inhibition": "inactive: -1.06%"}
{"smiles": "CC(=O)Nc1ccc([As](=O)(O)O)cc1", "inhibition": "inactive: -1.94%"}
{"smiles": "O=C(O)c1ccccc1[As](=O)(O)O", "inhibition": "inactive: -4.33%"}
{"smiles": "Cc1cc(SC(NC(=O)c2ccc(F)cc2)C(Cl)(Cl)Cl)ncn1", "note": "(stereo not given)", "inhibition": "inactive: -2.04%"}
{"smiles": "CCOP(=O)(Nc1ccccc1)OCC", "inhibition": "inactive: -1.85% and inactive: -0.73%"}
{"smiles": "Cc1ccc(NP(=O)(Oc2ccccc2F)Oc2ccccc2F)nc1", "inhibition": "inactive: 3.13%"}
{"smiles": "Nc1cccc2ccc([As](=O)(O)O)cc12", "inhibition": "inactive: -3%"}
{"smiles": "CCN(N=Nc1nonc1N)c1nonc1N", "inhibition": "inactive: -2.93%"}
{"smiles": "O=C(Nc1cc([As](=O)(O)O)ccc1O)c1ccccc1", "inhibition": "inactive: -1.25%"}
{"smiles": "O=[N+]([O-])c1ncn(CCn2ncnc2[N+](=O)[O-])n1", "inhibition": "inactive: 2.92%"}
{"smiles": "CC(C)(C)C(=O)NC(Sc1ccncn1)C(Cl)(Cl)Cl", "note": "(stereo not given)", "inhibition": "inactive: -1.02%"}
{"smiles": "O=C(O)CNc1ccc([As](=O)(O)O)cc1", "inhibition": "inactive: -2.11%"}
{"smiles": "O=[N+]([O-])c1cccc(NC2=NCC(CBr)S2)c1", "note": "(stereo not given)", "inhibition": "inactive: 0.76%"}
{"smiles": "COc1ccc(C2=NCC(CBr)S2)cc1", "note": "(stereo not given)", "inhibition": "inactive: 0.62%"}
{"smiles": "Cc1ccc(NP(=O)(Oc2ccccc2)Oc2ccccc2)nc1", "inhibition": "inactive: -2.58%"}
{"smiles": "O=[N+]([O-])c1cc([N+](=O)[O-])c(CCNc2ccccc2)c([N+](=O)[O-])c1", "inhibition": "inactive: 8.92%"}
{"smiles": "CCc1nc2c(n1)c1c(non1O)c1c2no[n+]1[O-]", "inhibition": "active: 52%"}
{"smiles": "CC(=O)N1C2C3N(C(C)=O)C1C1N(C(C)=O)C(C(N1C(C)=O)N3C(C)=O)N2C(C)=O", "inhibition": "inactive: -2.02%"}
{"smiles": "O=[N+]([O-])c1cccc2n[nH]nc12", "inhibition": "inactive: 1.82%"}
{"smiles": "CCN(/C(=N/P(=O)(N1CCOCC1)N1CCOCC1)N1CCOCC1)c1ccc(OC)cc1", "inhibition": "inactive: 2.42%"}
{"smiles": "Nc1ccc([As](=O)(O)c2ccc(N)cc2)cc1", "inhibition": "inactive: -3.81%"}
{"smiles": "C[N+]1=C2C=CC=CC=C2SC12C([N+](=O)[O-])=CC([N+](=O)[O-])=C[C-]2[N+](=O)[O-]", "note": "(stereo not given)", "inhibition": "inactive: -1.57%"}
{"smiles": "CC1CCN(C(=O)Oc2c(Cl)cc(Cl)c3cccnc23)CC1", "inhibition": "inactive: 1.18%"}
{"smiles": "CC(C)=N/N=C(\\N)N[N+](=O)[O-]", "inhibition": "inactive: 0.18%"}
{"smiles": "CN(C)C(=O)OCCc1n(C)cc[n+]1C", "inhibition": "inactive: -3.38%"}
